# In ChEMBL document CHEMBL5518223, “Structure-Guided Elaboration of a Fragment-Like Hit into an Orally Efficacious Leukotriene A4 Hydrolase Inhibitor” (J Med Chem, 2024):
# Protein sequences, listed by entry. Tags and fused reporters are not part of them. Lines headed by an entry give the natural chain unless they say otherwise; changes in a name come on top.
# UniProt P35968, whole entry: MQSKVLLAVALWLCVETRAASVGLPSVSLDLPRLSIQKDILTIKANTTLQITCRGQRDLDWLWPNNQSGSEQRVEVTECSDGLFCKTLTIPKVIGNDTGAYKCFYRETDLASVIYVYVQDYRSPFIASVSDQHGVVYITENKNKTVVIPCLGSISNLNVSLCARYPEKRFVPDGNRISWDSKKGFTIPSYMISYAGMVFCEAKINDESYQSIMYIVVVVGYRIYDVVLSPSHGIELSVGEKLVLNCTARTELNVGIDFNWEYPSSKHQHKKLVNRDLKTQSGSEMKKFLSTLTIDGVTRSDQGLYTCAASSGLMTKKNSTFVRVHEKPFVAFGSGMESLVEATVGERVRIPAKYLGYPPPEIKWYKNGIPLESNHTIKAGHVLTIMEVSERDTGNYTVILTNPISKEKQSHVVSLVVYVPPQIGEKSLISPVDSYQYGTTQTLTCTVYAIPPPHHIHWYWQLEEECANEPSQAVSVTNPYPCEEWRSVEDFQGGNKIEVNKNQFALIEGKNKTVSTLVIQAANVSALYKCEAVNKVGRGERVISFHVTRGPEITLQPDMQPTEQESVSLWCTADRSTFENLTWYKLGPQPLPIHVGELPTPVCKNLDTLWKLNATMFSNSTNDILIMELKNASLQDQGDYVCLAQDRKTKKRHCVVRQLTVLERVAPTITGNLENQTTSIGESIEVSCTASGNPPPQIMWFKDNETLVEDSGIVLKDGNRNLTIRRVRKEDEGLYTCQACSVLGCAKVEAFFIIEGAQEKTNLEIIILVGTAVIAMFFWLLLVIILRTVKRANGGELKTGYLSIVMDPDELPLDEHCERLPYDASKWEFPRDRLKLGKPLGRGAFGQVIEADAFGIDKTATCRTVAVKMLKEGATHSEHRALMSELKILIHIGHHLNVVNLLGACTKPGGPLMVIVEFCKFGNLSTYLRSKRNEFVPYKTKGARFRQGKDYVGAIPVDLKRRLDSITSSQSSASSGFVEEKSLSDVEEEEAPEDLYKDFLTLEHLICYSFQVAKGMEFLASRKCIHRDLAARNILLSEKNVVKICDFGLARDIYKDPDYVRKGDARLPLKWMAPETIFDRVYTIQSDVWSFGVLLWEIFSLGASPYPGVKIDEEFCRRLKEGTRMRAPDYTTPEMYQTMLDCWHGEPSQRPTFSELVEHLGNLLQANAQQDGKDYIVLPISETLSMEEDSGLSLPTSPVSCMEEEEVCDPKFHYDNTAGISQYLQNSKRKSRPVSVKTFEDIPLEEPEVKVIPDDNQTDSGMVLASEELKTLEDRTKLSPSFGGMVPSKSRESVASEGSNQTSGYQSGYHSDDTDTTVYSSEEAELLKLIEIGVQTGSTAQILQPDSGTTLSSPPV
# UniProt Q9Y5N1: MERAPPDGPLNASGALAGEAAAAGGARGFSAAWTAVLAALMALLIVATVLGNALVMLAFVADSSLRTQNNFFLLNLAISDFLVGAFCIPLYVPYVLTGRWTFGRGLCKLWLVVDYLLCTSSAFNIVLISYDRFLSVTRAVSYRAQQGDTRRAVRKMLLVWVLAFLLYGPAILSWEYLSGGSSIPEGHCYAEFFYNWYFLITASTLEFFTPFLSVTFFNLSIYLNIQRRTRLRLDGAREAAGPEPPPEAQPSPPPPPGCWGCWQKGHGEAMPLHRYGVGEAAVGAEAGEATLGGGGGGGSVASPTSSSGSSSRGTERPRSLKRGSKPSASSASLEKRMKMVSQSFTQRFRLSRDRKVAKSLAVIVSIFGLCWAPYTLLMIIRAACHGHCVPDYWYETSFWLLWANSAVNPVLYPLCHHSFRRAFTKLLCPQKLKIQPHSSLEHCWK
# UniProt P11229: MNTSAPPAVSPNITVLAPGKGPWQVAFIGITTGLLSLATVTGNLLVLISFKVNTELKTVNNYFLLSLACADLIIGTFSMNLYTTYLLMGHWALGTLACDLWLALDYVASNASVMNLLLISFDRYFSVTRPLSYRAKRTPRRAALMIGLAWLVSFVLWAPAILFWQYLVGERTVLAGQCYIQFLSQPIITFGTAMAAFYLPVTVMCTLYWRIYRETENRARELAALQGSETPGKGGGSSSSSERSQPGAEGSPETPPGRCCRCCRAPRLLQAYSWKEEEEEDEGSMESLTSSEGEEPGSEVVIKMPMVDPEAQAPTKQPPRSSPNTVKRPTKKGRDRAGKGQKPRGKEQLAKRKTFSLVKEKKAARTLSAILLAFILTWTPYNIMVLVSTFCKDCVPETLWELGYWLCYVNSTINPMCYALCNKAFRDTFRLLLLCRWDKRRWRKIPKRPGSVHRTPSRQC
# Assays:
# [1] = target: Vascular endothelial growth factor receptor 2 (Homo sapiens) (UniProt P35968); assay: Inhibition of KDR (unknown origin) at < 10 uM
# [2] = target: Receptor tyrosine-protein kinase erbB-2 (Homo sapiens) (UniProt P04626); assay: Inhibition of ERBB2 (unknown origin) at < 10 uM
# [3] = target: Histamine H3 receptor (Homo sapiens) (UniProt Q9Y5N1); assay: Inhibition of Histamine H3 receptor (unknown origin) at < 10 uM
# [4] = target: Muscarinic acetylcholine receptor M1 (Homo sapiens) (UniProt P11229); assay: Inhibition of muscarinic M1 receptor (unknown origin) at < 10 uM
inhibition [1],inhibition [2],inhibition [3],inhibition [4],SMILES
Active,Active,Active,Active,c1cc(-c2ccc(Oc3ccc(CN4CCCCC4)nc3)nc2)[nH]n1
inactive,inactive,inactive,inactive,OC1CCN(Cc2ccc(Oc3ccc(-c4ccn[nH]4)cn3)cn2)CC1
Active,Active,Active,Active,c1cc(-c2ccc(Oc3ccc(CN4CCCC4)nc3)nc2)[nH]n1

# The source made the active and inactive calls. The calls are words filed in the database; no cut-off is given here.
